Ki data for one compound are collected here from ChEMBL document CHEMBL4480374, “Methoxy substituted 2-benzylidene-1-indanone derivatives as A1 and/or A2A AR antagonists for the potential treatment of neurological conditions” (Medchemcomm, 2019).

In this assay the target is Adenosine receptor A2a (Homo sapiens, UniProt P29274). The assay is described as follows: Antagonist activity at human adenosine A2A receptor.

By Ki is commonly meant a dissociation constant, usually derived from enzyme kinetics or from competition with a known ligand. `CC(C)n1cc(-c2ncc(N)nc2-c2ccc(F)cc2)ccc1=O`: the affinity, expressed as Ki, was 1760 nM.
